Test results reported in patent publication US7723366B2 (Chugai Seiyaku Kabushiki Kaisha, priority 2001, dated 2010).

By UniProt entry, the sequences of proteins in these tests, tags left out. Residues count along the entry.
UniProt Q920F5, 39-492 limits assumed: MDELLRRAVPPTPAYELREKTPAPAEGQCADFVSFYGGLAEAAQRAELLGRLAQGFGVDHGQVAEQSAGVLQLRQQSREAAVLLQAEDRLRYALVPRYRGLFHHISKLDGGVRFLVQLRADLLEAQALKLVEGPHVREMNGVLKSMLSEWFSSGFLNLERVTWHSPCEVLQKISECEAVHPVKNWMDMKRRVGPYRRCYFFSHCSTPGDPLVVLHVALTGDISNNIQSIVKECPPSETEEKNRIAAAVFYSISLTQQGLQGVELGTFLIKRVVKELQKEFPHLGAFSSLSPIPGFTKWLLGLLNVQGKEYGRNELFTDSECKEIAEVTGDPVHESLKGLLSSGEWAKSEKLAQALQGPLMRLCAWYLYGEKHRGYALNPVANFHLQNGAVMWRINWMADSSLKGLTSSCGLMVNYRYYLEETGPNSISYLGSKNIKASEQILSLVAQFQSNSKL

Target: malonyl-CoA decarboxylase prepared from rat heart (Rattus norvegicus, UniProt Q920F5)
Test: In vitro MCD inhibitory assay (spectrophotometric, 96 well)
Settings: read-out: IC50 of the MCD inhibitors

IC50: 151 nM
Structure (SMILES): CCCN(C(=O)N1CCOCC1)c1ccc2nc(S)sc2c1
